Legend:
[1] = biological target: T1, recombinant EPN1 (Origene, cat #TP307099) (human, UniProt Q9Y6I3 1-576); assay: SPR, IMM20059 captured at 450 RU on CM5/Protein A, EPN1 in solution, 1:1 model, 25° C., average of three tests
T1 construct: Bought protein; also called Epsin-1; Epsin 1
T1 sequence: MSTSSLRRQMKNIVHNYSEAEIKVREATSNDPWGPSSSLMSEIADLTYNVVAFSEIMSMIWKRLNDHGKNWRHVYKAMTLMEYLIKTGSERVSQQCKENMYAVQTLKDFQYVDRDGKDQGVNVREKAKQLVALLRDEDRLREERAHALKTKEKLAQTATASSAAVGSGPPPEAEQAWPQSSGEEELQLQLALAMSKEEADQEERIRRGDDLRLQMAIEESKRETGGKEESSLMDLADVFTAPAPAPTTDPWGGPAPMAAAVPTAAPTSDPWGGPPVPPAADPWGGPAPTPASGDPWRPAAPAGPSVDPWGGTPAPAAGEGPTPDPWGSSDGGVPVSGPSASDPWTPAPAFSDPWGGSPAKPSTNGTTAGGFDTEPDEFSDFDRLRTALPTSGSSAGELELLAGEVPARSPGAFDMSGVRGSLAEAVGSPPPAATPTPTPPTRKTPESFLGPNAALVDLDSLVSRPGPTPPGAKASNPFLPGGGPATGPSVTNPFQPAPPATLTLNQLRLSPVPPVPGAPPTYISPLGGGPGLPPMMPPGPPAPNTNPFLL
Method: (§1) The strength of the interaction with recombinant EPN1 was further defined by surface plasmon resonance on a BIAcore2000 at 25° C. in standard running buffer (10 mM HEPES, 150 mM NaCl, 0.005% Tween-20, 0.2 mg/mL BSA, pH 7.4). Protein A surfaces were regenerated between binding cycles with 150 mM phosphoric acid. IMM20059, or an isotype control, were captured on CM5/Protein A sensor surface to generate binding and control surfaces; IMM20059 was captured at approximately 200 and 450 RU, the isotype control was captured to a density of approximately 600 RU. Binding of recombinant EPN1 to each of the three surfaces was tested, in triplicate, using a three-fold dilution series starting with 33.3 nM as the highest concentration. […] Double-subtracted data obtained from the binding measured against the 450 RU IMM20059 surface was fit to a 1:1 binding model.

[2] = biological target: T2, human EPN1 expressed by human cell lines (human, UniProt Q9Y6I3 1-576); assay: flow cytometry, H1735 cells (human tumor line)
T2 construct: Endogenous EPN1 of human tumour and normal cell lines, stained on live cells or on fixed and permeabilised cells, or immunoprecipitated; The cell lines were not engineered to express it; also called surface EPN1; huEPN1
T2 sequence: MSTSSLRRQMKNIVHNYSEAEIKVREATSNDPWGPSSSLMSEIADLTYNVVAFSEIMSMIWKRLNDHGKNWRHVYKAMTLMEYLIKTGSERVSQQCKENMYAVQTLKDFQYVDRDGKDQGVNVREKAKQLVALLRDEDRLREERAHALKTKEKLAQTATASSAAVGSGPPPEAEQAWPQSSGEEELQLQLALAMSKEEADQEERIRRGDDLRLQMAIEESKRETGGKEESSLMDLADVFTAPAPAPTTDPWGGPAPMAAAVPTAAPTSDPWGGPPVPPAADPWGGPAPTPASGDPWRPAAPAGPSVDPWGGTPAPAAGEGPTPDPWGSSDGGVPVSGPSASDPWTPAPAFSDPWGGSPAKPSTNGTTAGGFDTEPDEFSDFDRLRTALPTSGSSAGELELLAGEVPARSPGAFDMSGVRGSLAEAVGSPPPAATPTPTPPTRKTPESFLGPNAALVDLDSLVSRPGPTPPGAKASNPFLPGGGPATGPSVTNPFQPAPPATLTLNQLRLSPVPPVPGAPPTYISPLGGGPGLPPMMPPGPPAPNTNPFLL

[3] = biological target: T2, human EPN1 expressed by human cell lines; assay: flow cytometry, A431 cells (human tumor line)
[4] = biological target: T2, human EPN1 expressed by human cell lines; assay: flow cytometry, 769p cells (human tumor line)
[5] = biological target: T1, recombinant EPN1 (Origene, cat …); assay: SPR, IMM20059 captured on CM5/Protein A, 25° C.
Method: (§2) IMM20059 was captured at four different surface densities (500, 1000, 2600, and 2800 RU) on a CM5/Protein A sensor chip using 10 mM HEPES, pH 7.4, 150 mM NaCl, 0.005% Tween-20, 0.2 mg/mL BSA as a running buffer. EPN1 (Origene Cat #TP307099) or EPN2 (Origene Cat #TP310899) were diluted in running buffer to both 200 nM and 20 nM and analyzed for the ability to bind to the immobilized IMM20059 at 25° C. […] However, as detailed in Table 4, the observed off-rates for binding to EPN1 were dependent upon IMM20059 surface density, with the off-rate on the 500 RU surface being 2.4-times faster than the off-rate measured on the 2800 RU density surface.

[6] = biological target: T2, human EPN1 expressed by human cell lines; assay: flow cytometry, H660 cells (human tumor line)
[7] = biological target: T2, human EPN1 expressed by human cell lines; assay: flow cytometry, OE19 cells (human tumor line)
[8] = biological target: T1, recombinant EPN1 (Origene, cat …); assay: SPR, IMM20059 captured at 500 RU on CM5/Protein A, EPN1 in solution, 25° C.
Method: as §2

[9] = biological target: T2, human EPN1 expressed by human cell lines; assay: flow cytometry, WM1366 cells (human tumor line)
[10] = biological target: T2, human EPN1 expressed by human cell lines; assay: flow cytometry, Huh7 cells (human tumor line)
[11] = biological target: T2, human EPN1 expressed by human cell lines; assay: flow cytometry, OVCAR3 cells (human tumor line)
[12] = biological target: T2, human EPN1 expressed by human cell lines; assay: flow cytometry on intact Huh7 cells, fluorophore-labelled anti-human secondary
Description: Binding of IMM20059 to intact cells was detected with fluorophore-labelled anti-human secondary Abs.
Full-length IgG1 antibody, containing the PR045-2H11 Ab VH and VL domains, was expressed recombinantly by transient transfection into mammalian cell lines, such as Chinese Hampster Ovary (CHO) and human embryonic kidney (HEK), or derivatives of those cell lines, using standard conditions. The recombinant antibody, referred to as IMM20059, was purified from conditioned media by affinity chromatography, buffer exchanged into PBS and analyzed for activity by flow cytometry. […] IMM20059 binds, to varying degrees, to the surfaces of cells included in a panel of human cancer cells, immortalized normal human cell lines, and mouse tumor lines (Table 1).

[13] = biological target: T1, recombinant EPN1 (Origene, cat …); assay: SPR, IMM20059 captured at 450 RU on CM5/Protein A, EPN1 in solution, 1:1 model, 25° C., 3rd test
Method: as §1

[14] = biological target: T2, human EPN1 expressed by human cell lines; assay: flow cytometry, SKMEL28 cells (human tumor line)

- Kd [1]: 950 pM
- koff [1]: 0.00072 s⁻¹
- kon [1]: 760000 M⁻¹ s⁻¹
- MFI (fold mean fluorescence index above isotype control) [2]: 21 fold
- MFI (fold mean fluorescence index above isotype control) [3]: 14 fold
- MFI (fold mean fluorescence index above isotype control) [4]: 14 fold
- off-rate ratio (500 RU surface against 2800 RU surface) [5]: 2.4 fold
- MFI (fold mean fluorescence index above isotype control) [6]: 16 fold
- MFI (fold mean fluorescence index above isotype control) [7]: 5 fold
- Kd [8]: 2400 pM
- koff [8]: 0.000587 s⁻¹
- kon [8]: 244000 M⁻¹ s⁻¹
- MFI (fold mean fluorescence index above isotype control) [9]: 17 fold
- MFI (fold mean fluorescence index above isotype control) [10]: 26 fold
- MFI (fold mean fluorescence index above isotype control) [11]: 16 fold
- EC50 [12]: 1.33 µg/mL
- Kd [13]: 950 pM
- koff [13]: 0.000721 s⁻¹
- kon [13]: 760000 M⁻¹ s⁻¹
- MFI (fold mean fluorescence index above isotype control) [14]: 15 fold
B1: IMM20059 (antibody, human IgG1, kappa, V domains shown)
VH: EVQLVESGGGLVQPGGSLRLSCAASGFTFSIHSLNWVRQAPGKGLEWVSYISSNSTTIYYADSVKGRFTISRDNAKDSLYLQMNSLRDEDTAVYYCARDYYCTGGTCFFLPDLWGRGALVTVSS
VL: EIVLTQSPATLSLSPGERATLSCRASQNISNFLAWYQHKPGQAPRLLIYDASIRATGIPARFSGSGSGTDFSLTISSLEPEDFAVYFCQQRYNWLTFGGGTKVEIKR
